Assays:
[1] = Phase I Part 2: plasma pharmacokinetics Day 1 and Day 14 of once daily dosing; format: in vivo, human; conditions: median
Experimental: (§1) PK analysis was performed in all subjects who received at least one dose of evobrutinib and had at least one primary PK parameter evaluable by non-compartmental methods using PHOENIX® WINNONLIN® Version 6.3 (Certara LP, Princeton, N.J., US). Serial blood samples were obtained on Day 1 pre-dose and 0.25, 0.5, 1.0, 1.5, 2, 2.5, 3, 4, 5, 6, 8, 12, 16, 24 (Day 2), 36 (Day 2), and 48 h (Day 3) post-dose during Part 1, and used to prepare plasma samples for evobrutinib PK analysis. A similar sampling schedule was undertaken in Part 2 on Days 1 and 14, with additional trough samples obtained on Days 5, 8, 11, as well at Day 17 and 18.
(§2) PK samples were analyzed by Quintiles Bioanalytical and ADME Laboratory (Ithaca, N.Y., USA) using a validated bioanalytical liquid chromatographic assay with tandem mass spectrometric detection (UPLC-MS/MS) to determine evobrutinib concentration; the LLOQ of the assay was 0.1 ng/mL. Plasma evobrutinib concentrations and PK parameters were summarized descriptively. To test dose proportionality, PK parameters were analyzed graphically as AUC/dose and Cmax/dose and via a power model (PK parameter=α*dose^β) approach with log-transformed PK parameters as the dependent variable and log-transformed dose as the independent variable. Accumulation of evobrutinib and time dependency of PK parameters were evaluated for each dose level during Part 2 using a linear mixed-effect analysis of variance for log-transformed PK parameters with a fixed-repeated effect for day and random effect for subject.

[2] = Phase I Part 1: plasma pharmacokinetics after single oral dose; format: in vivo, human; conditions: median
Experimental: as §1, §2

Measured: Tmax

C=CC(=O)N1CCC(CNc2ncnc(N)c2-c2ccc(Oc3ccccc3)cc2)CC1 [Evobrutinib, 1-(4-(((6-amino-5-(4-phenoxyphenyl)pyrimidin-4-yl)amino)methyl)piperidin-1-yl)prop-2-en-1-one]
30 min: [1]; multiple-dose study Day 1, 75 mg | [1]; multiple-dose study Day 1, 200 mg | [1]; multiple-dose study Day 14, 25 mg once daily | [1]; multiple-dose study Day 14, 75 mg once daily | [1]; multiple-dose study Day 14, 200 mg once daily | [2]; single dose 50 mg | [2]; single dose 100 mg | [2]; single dose 200 mg | [2]; single dose 500 mg

Source: patent US12251382B2, “Substituted amino-pyrimidine compound for use in a method for treatment and prevention of multiple sclerosis” (Merck Patent GmbH, priority 2018, dated 2025)
